The values below come from publication PMC2632899 (Nucleic Acids Research, 2008).

The target of the assay is Flag-DDB1 alone (human). Nature of the assay: pull-down.

B1: GST-XPA fusion protein (wild type) (natural protein)
chain: MAAADGALPEAAALEQPAELPASVRASIERKRQRALMLRQARLAARPYSATAAAATGGMANVKAAPKIIDTGGGFILEEEEEEEQKIGKVVHQPGPVMEFDYVICEECGKEFMDSYLMNHFDLPTCDNCRDADDKHKLITKTEAKQEYLLKDCDLEKREPPLKFIVKKNPHHSQWGDMKLYLKLQIVKRSLEVWGSQEALEEAKEVRQENREKMKQKKFDKKVKELRRAVRSSVWKRETIVHQHEYGPEENLEDDMYRKTCTMCGHELTYEKM
As for B1, the binding result was “binds”.
